Experiment [1] has as its target human thyrotropin receptor (TSHR), wild type, full length (human) (UniProt P16473). In words: Scatchard, 125I-ligand, solubilised TSHR on tubes.
Experiment [2] has the same target. In words: Scatchard, 125I-ligand, solubilised TSHR on tubes. This is another data set of the same source.

Where two headings read alike, the source gives them in different places.

For the substance “porcine TSH (RSR Ltd, 70 units per mg) (from UniProt P01219 25-120; P01224 21-132) (ligand; other documents disagree on this pair)”, the values for the Ka in experiment [1] and in experiment [2] were 4.2e+09 M⁻¹ and 6e+09 M⁻¹, respectively.

The values are drawn from patent US9046519.
